Measurements taken from BindingDB's records for doi:10.1021/jm9508853 (University of Maryland, 2021).

Target: B-cell lymphoma 6 protein (Homo sapiens, UniProt P41182)
Experiment: Inhibition of human BCL6 BTP domain measured by TR-FRET assay

SMILES: Cn1c(=O)n(C)c2cc(Nc3ccnc(Cl)c3C#N)ccc21
- IC50: 3.4 µM
